Data: patent US6716422B1, “Vaccine adjuvants for immunotherapy of melanoma” (ARCH Development Corporation, priority 1998, dated 2004)

Assays:
[1] = tested on: refractory metastatic melanoma; test: Human vaccination study: clinical outcome; format: in vivo; conditions: one line per patient
Source text: Evaluation of tumor regression is a secondary endpoint in this study. Tumor masses are characterized carefully with bidimensional measurements.
Criteria for a Partial Response (PR): 50% reduction in the sum of the product of the largest perpendicular diameters of the indicator lesions identified prior to therapy.
Criteria for a Complete Response (CR): total disappearance of all evidence of tumor without appearance of new lesions.
Criteria for Progressive Disease (PD): appearance of new lesions; and/or fifty percent increase in the sum of the product of the largest perpendicular diameters of the indicator lesions. This cutoff has been chosen because initial increases in tumor size followed by tumor shrinkage have been observed in the first MAGE-3 peptide immunization experience; and/or reappearance of any tumor.
Criteria for Stable Disease (SD): Failure to meet the criteria for a Partial Response, Complete Response, or Progressive Disease.
Data for clinical responses are also presented.

[2] = tested on: peptide-specific, IFN-γ-producing CD8+ T cells; test: Human vaccination study: peptide-specific T cell response; conditions: for Evidence Immunized?: one line per patient
[3] = tested on: metastatic renal cell carcinoma; conditions: human, in vivo; cited from earlier work

Substance	Clinical Outcome ([1]; IL-12 dose 0)	Clinical Outcome ([1]; IL-12 dose 30 ng/kg)	Clinical Outcome ([1]; IL-12 dose 100 ng/kg)	Evidence Immunized? ([2]; IL-12 dose 0)	Evidence Immunized? ([2]; IL-12 dose 30 ng/kg)	Timing of detection of specific responses ([2]; compared between antigens)	Response rates [3]
AAGIGILTV [MelanA]	PR (50% reduction in the sum of the product of the largest perpendicular diameters of the indicator lesions identified prior to therapy)	PD (appearance of new lesions; and/or fifty percent increase in the sum of the product of the largest perpendicular diameters of the indicator lesions)	PD (appearance of new lesions; and/or fifty percent increase in the sum of the product of the largest perpendicular diameters of the indicator lesions)	Yes	Yes	detected earlier than Mage3-specific responses	
IL-2: T cell growth factor IL-2							15-20%
